# Test results reported in US20260130879A1 (IMMUNIC AG, priority 2023, published 2026).
# Amino acid sequences for entries named in this document (tags omitted). Residues count along the entry.
# UniProt P43354, 360-595 limits assumed: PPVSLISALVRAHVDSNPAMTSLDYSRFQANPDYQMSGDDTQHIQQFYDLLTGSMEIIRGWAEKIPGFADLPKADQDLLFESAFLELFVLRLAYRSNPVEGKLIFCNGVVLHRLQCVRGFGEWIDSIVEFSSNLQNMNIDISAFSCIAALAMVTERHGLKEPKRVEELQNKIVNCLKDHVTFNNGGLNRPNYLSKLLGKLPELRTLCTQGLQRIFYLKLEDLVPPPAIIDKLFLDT
# Biological target: human Nurr1 (Homo sapiens, UniProt P43354)
# Experiment: Hybrid Gal4-Nurr1 reporter gene assay in HEK293T cells
Nurr1 agonism max. fold activation [fold],Nurr1 agonism max. fold activation (range),Structure (SMILES),further results
2.61 ± 0.07,,[2H]C([2H])([2H])Oc1cccc(-c2ccc(NC(=O)C3=C(C(=O)O)CCC3)c(F)c2)c1 [2/1],
,+++ (+++: ≥3-fold),[2H]c1cc([2H])c(-c2ccc(NC(=O)C3=C(C(=O)O)CCC3)c(F)c2)c([2H])c1OC([2H])([2H])[2H] [2/3],
,+++ (+++: ≥3-fold),[2H]c1cc(-c2cccc(OC([2H])([2H])[2H])c2)cc(F)c1NC(=O)C1=C(C(=O)O)CCC1 [2/12],
3.1 ± 0.4,,"COc1cccc(-c2ccc(NC(=O)C3=C(C(=O)O)CCC3)c(F)c2)c1 [Example 1, vidofludimus]",
,,"C#CCOc1cccc(-c2ccc(NC(=O)C3=C(C(=O)O)CCC3)c(F)c2)c1 [Example 3, 2-((3-Fluoro-3′-(prop-2-yn-1-yloxy)-[1,1′-biphenyl]-4-yl)carbamoyl)cyclopent-1-ene-1-carboxylic acid]",EC50: 0.23 ± 0.03 µM
